As usually defined, the Ki is a measure of affinity in units of concentration, obtained from inhibition or displacement. Lower therefore signals tighter binding.

The chains behind the UniProt entries cited, without tags or fusion partners.
UniProt O43613, whole entry: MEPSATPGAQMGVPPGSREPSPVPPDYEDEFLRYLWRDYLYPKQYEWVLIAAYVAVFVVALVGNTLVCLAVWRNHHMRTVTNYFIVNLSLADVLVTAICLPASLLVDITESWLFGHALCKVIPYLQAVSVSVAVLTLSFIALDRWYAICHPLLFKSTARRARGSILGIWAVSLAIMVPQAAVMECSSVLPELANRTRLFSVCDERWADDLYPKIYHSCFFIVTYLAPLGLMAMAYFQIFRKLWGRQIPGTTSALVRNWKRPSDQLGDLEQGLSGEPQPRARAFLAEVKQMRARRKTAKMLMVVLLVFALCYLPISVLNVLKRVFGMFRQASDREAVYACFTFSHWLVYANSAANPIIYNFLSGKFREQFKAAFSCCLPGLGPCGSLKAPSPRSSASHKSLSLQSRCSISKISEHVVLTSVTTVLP

The assay concerns the target Orexin/Hypocretin receptor type 1 (Homo sapiens, UniProt O43613).

Regarding `Cc1cc(C)nc(N2C[C@H]3CN(C(=O)c4ccc(F)cc4-n4nccn4)C[C@H]3C2)n1`, the Ki amounted to 1960 nM.
